This is a selection; strong and weak results do not stand in their true shares. Calls of active or inactive are those of the source.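 How the source made its calls: active means membrane potential signal rise above negative control mean plus 3 SD in both duplicates, also active in the earlier TRPC4 screen; inactive means the rest.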

Protein sequences, listed by entry. Tags and fused reporters are not part of them.
UniProt Q61143, whole entry: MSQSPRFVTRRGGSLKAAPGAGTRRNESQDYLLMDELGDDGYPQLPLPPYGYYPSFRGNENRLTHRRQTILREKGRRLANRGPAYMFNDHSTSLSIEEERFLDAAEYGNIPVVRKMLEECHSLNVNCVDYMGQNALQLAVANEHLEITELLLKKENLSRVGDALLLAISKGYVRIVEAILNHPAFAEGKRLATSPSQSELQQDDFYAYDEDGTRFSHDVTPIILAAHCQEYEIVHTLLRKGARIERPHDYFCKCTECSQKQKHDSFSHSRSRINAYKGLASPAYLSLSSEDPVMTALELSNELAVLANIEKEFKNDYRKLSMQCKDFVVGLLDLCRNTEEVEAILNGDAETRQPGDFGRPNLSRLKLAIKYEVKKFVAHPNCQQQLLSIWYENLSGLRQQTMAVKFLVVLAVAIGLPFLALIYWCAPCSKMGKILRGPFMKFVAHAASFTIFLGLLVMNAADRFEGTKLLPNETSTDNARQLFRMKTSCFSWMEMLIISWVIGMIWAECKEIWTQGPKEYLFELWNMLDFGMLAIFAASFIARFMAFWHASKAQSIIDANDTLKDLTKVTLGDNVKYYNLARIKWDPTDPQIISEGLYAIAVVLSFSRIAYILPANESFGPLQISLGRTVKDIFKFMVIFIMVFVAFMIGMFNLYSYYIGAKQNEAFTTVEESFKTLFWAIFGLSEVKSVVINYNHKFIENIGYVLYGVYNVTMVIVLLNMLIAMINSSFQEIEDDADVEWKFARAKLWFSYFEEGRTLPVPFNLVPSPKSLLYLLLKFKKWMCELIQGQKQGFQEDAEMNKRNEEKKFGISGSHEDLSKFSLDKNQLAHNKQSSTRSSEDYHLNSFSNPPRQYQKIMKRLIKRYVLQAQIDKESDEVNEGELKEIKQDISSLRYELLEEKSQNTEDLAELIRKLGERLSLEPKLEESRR

In this test the target is Short transient receptor potential channel 6 (Mus musculus) (UniProt Q61143). The experiment in a line: TRPC6 opening by TRPC4 activator hits – cell-based, HEK293, membrane potential dye, duplicate, selectivity assay for TRPC4 activator project, confirmation (AID 434950). The note with it: HEK293 TRPC6, membrane potential fluorescence, activation; at 10 µM.
On to `CCN(CC)CCCOC(=O)C(O)(c1ccccc1)c1ccccc1`, for which the outcome was inactive. With `CN(C)CCOC(=O)C(O)(c1ccccc1)C1CCCC1` (configuration not stated) the entry was “inactive”.
